From article PMC10993414, “Water Quality Monitoring with the Multiplexed Assay MitoOxTox for Mitochondrial Toxicity, Oxidative Stress Response, and Cytotoxicity in AREc32 Cells” (Environmental Science & Technology, 2024) come the findings set out here.

Series [1] has as its system AREc32 cells. The conditions noted are these: human.
Series [2] has as its system AREc32 cells. The settings on record: human. This is another data set of the same source.
The test system of series [3] is AREc32 cells. In words: Cytotoxicity with ImageXpress high-content imaging, MitoOxTox. The settings on record: cell viability, AREc32, 24 h.

A word on the IC10: it is the point of the concentration-response curve where the effect stands at 10%. Low values mean an effect from little substance, high ones a need for much substance. Consider Oligomycin A, for which, in the series on AREc32 cells [1], the “Cytotoxicity ImageExpress IC10” value was 1.81 nM and the “Cytotoxicity ImageExpress log(IC10 (M))” value is on record as -8.74 M. Also, in the series on AREc32 cells [2], the “Cytotoxicity Incucyte IC10” value was 1.58 nM and the “Cytotoxicity Incucyte log(IC10 (M))” value was -8.80. In the series on AREc32 cells [3], the IC10 is listed as 1.8 nM.
